Test results as given in ChEMBL document CHEMBL1127438, “Substituted (S)-phenylpiperidines and rigid congeners as preferential dopamine autoreceptor antagonists: synthesis and structure-activity relationships” (J Med Chem, 1994).

Assays:
[1] = target: T1, 5-hydroxytryptamine receptor 1A (Rattus norvegicus, UniProt P19327); assay: Tested for affinity against 5-hydroxytryptamine 1A receptor using [3H]8-OH-DPAT in homogenized rat brain tissue
[2] = target: T1, 5-hydroxytryptamine receptor 1A; assay: Tested for affinity against 5-hydroxytryptamine 1A receptor using [3H]8-OH-DPAT in homogenized rat brain
[3] = target: T1, 5-hydroxytryptamine receptor 1A; assay: Tested for affinity against 5-hydroxytryptamine 1A receptors using [3H]8-OH-DPAT in homogenized rat cloned CHO cells; assay type: cell-based

CCCN1CCC[C@@H](c2cccc(S(C)(=O)=O)c2)C1
Ki [1]: 2590 nM

CCCN1CCC[C@@H](c2cccc(-c3ccsc3)c2)C1
Ki [1]: 160 nM

CN(C)CCCN1CCC[C@@H](c2cccc(C#N)c2)C1
Ki [1]: 7120 nM

CCCN1CCC[C@@H](c2ccc(OS(=O)(=O)C(F)(F)F)c(OS(=O)(=O)C(F)(F)F)c2)C1
Ki [2]: > 10000 nM

CCCN1CCC[C@@H](c2ccc(OS(=O)(=O)C(F)(F)F)cc2)C1
Ki [2]: > 10000 nM

CCCc1cccc([C@@H]2CCCN(CCC)C2)c1
Ki [1]: 135 nM

CCN1CCC[C@@H](c2cccc(OS(=O)(=O)C(F)(F)F)c2)C1
Ki [1]: 1040 nM

CCCN1CCC[C@@H](c2cccc(S(=O)(=O)N(C)C)c2)C1
Ki [1]: 8160 nM

CCC(C)N1CCC[C@@H](c2cccc(C#N)c2)C1 (stereo partly specified)
Ki [1]: 8070 nM

CCCN1CCC[C@@H](c2cccc(OS(=O)(=O)C(F)(F)F)c2)C1
Ki [1]: 1530 nM

CN1CCC[C@@H](c2cccc(C#N)c2)C1
Ki [1]: > 10000 nM

CCN1CCC[C@@H](c2cccc(C#N)c2)C1
Ki [1]: > 10000 nM

C#CCN1CCC[C@@H](c2cccc(C#N)c2)C1
Ki [1]: > 10000 nM

CCCN1CCC[C@@H](c2cccc(C#N)c2)C1
Ki [1]: > 10000 nM

CCCN1CCC[C@@H](c2cccc(C(N)=O)c2)C1
Ki [1]: 5040 nM

CCCN1CCC2c3cccc(OS(=O)(=O)C(F)(F)F)c3CCC21 (stereo unspecified)
Ki [1]: 72 nM

CCCN1CCC[C@@H](c2cccc(Br)c2)C1
Ki [1]: 800 nM

C=CCN1CCC2c3cccc(C#N)c3CCC21 (stereo unspecified)
Ki [1]: > 400 nM

CCCN1CCC[C@@H](c2cccc(CO)c2)C1
Ki [1]: 2410 nM

C=CCN1CCC[C@@H](c2cccc(C#N)c2)C1
Ki [1]: 9600 nM

CCCN1CCC[C@@H](c2cccc(C)c2)C1
Ki [1]: 1200 nM

CCCN1CCC[C@@H](c2cccc(NS(=O)(=O)C(F)(F)F)c2)C1
Ki [3]: > 10000 nM | Ki [1]: > 2000 nM

CC(C)N1CCC[C@@H](c2cccc(C#N)c2)C1
Ki [1]: > 10000 nM

C=CCN1CCC2c3cccc(OS(=O)(=O)C(F)(F)F)c3CCC21 (stereo unspecified)
Ki [1]: 18 nM

CCCN1CCC[C@@H](c2cccc(OC)c2)C1
Ki [1]: 3600 nM

CCCN1CCC[C@@H](c2cccc(OS(C)(=O)=O)c2)C1
Ki [1]: 1380 nM

N#Cc1cccc([C@@H]2CCCN(CCc3ccccc3)C2)c1
Ki [1]: 120 nM

N#Cc1cccc([C@@H]2CCCNC2)c1
Ki [1]: 8000 nM

CCCN1CCC[C@@H](c2ccccc2OS(=O)(=O)C(F)(F)F)C1
Ki [1]: 1840 nM

CCCN1CCC[C@@H](c2cccc(CC#N)c2)C1
Ki [1]: 3260 nM

CCCN1CCC[C@@H](c2cccc(OCC(F)(F)F)c2)C1
Ki [1]: 1200 nM

CCCCN1CCC[C@@H](c2cccc(C#N)c2)C1
Ki [1]: 4480 nM

C=CCN1CCC2c3cccc(C(N)=O)c3CCC21 (stereo unspecified)
Ki [1]: > 1000 nM

CCCN1CCCC2c3cccc(OS(=O)(=O)C(F)(F)F)c3CCC21 (stereo in doubt; 45)
Ki [1]: 1140 nM

C=CCN1CC[C@@H]2c3cccc(OS(=O)(=O)C(F)(F)F)c3CC[C@@H]21 (stereo in doubt; 49)
Ki [1]: 117 nM
